Test results taken from US20180193486A1, “COMPOSITIONS AND METHODS FOR TREATMENT OF AUTOIMMUNE AND OTHER DISEASE” (priority 2010, published 2018).

The chains behind the UniProt entries cited, without tags or fusion partners. Residues count along the entry.
UniProt P22303, 32-614, species assumed: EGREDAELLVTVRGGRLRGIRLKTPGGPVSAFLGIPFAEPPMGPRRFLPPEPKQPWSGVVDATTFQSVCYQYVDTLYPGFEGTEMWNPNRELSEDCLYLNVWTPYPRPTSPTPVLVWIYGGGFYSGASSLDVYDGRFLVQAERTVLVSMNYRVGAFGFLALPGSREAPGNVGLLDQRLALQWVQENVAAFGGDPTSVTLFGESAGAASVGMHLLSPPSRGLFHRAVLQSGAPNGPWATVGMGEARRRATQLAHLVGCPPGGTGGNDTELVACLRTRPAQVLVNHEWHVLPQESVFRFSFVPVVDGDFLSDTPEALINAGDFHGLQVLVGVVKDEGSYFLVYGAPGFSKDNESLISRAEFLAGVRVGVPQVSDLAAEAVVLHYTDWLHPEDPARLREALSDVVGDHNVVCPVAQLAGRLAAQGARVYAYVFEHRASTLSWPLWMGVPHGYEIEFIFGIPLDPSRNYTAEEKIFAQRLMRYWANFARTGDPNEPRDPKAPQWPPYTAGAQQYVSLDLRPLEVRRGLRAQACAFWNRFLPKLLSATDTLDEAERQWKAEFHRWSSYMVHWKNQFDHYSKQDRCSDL

Target: acetyl cholinesterase (Homo sapiens, UniProt P22303)
Conditions: compared with PBS

Substance | CPT release rate in the presence of acetyl cholinesterase
Poly(CDDCys-PA-PEG)-Gly-CPT [HG6] | on the same order of magnitude as in PBS
Poly(CDDCys-PA-PEG)-GlyGlyGly-CPT [HGGG6] | on the same order of magnitude as in PBS
